# Laboratory results from patent US9708318B2, “Bicyclic heterocycles as FGFR4 inhibitors” (Incyte Corporation, priority 2015, dated 2017).
# The chains behind the UniProt entries cited, without tags or fusion partners. Residues count along the entry.
# UniProt P22607, 23-806 limits assumed: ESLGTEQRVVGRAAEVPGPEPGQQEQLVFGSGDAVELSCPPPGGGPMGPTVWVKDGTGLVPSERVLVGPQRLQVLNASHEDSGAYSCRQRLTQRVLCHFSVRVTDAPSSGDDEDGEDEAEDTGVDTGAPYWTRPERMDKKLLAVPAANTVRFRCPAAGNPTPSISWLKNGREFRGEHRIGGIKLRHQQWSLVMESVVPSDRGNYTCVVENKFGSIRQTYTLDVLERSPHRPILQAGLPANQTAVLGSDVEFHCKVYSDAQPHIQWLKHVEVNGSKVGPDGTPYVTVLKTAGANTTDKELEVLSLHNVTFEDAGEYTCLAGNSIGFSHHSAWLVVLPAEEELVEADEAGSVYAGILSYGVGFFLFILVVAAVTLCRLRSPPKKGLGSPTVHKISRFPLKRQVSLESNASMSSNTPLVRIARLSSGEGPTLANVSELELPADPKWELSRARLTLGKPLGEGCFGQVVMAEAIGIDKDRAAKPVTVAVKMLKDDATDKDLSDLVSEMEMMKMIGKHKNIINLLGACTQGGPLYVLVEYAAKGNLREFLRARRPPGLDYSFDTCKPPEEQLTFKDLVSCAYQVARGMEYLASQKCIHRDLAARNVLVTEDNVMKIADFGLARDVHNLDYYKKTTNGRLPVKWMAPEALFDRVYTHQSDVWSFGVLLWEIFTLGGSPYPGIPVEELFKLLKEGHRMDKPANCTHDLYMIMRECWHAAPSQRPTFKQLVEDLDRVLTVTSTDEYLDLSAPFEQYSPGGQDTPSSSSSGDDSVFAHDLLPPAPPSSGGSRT
# UniProt P21802, 22-821 limits assumed: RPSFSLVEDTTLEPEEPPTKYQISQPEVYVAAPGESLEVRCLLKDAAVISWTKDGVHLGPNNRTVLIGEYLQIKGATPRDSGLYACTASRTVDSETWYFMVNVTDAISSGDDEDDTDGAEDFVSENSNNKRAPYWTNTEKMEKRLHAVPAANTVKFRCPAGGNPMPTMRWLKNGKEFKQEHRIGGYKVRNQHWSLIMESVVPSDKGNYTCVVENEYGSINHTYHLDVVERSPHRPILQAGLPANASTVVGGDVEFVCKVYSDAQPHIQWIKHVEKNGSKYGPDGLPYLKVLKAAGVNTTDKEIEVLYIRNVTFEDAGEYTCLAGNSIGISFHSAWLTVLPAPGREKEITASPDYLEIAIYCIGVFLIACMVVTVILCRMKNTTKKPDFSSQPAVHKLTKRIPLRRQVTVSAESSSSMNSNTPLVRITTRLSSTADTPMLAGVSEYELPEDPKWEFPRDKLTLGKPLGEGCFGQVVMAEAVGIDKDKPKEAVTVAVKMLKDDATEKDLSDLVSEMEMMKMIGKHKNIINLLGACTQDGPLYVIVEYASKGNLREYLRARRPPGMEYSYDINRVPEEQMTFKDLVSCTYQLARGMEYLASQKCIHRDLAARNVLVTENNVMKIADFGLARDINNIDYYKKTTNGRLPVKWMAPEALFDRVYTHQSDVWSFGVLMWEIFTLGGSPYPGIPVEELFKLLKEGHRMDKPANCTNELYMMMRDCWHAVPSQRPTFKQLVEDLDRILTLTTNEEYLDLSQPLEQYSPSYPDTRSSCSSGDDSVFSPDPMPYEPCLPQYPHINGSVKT
# UniProt P22455, 22-802 limits assumed: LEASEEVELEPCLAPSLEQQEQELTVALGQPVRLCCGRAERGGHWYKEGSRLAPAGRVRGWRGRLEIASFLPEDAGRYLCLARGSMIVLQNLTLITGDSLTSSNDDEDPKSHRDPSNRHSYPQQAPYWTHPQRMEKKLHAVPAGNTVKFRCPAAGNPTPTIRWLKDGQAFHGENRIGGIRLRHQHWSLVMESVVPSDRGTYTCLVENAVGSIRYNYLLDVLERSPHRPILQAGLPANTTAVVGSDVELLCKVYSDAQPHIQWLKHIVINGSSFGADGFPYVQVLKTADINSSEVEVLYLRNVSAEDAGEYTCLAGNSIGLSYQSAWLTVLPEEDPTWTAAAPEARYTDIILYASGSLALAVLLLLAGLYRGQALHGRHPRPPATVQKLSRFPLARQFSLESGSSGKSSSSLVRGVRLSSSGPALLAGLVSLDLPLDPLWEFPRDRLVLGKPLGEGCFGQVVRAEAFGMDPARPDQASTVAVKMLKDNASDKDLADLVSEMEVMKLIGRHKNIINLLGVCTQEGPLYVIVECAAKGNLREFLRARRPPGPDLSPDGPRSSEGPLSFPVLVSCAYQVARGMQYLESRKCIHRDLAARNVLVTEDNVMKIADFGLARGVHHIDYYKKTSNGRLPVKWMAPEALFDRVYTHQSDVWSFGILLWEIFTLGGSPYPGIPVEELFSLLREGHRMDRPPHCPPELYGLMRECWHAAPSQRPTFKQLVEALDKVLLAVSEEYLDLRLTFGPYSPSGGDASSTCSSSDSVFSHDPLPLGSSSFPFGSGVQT
# UniProt P11362, 22-822 limits assumed: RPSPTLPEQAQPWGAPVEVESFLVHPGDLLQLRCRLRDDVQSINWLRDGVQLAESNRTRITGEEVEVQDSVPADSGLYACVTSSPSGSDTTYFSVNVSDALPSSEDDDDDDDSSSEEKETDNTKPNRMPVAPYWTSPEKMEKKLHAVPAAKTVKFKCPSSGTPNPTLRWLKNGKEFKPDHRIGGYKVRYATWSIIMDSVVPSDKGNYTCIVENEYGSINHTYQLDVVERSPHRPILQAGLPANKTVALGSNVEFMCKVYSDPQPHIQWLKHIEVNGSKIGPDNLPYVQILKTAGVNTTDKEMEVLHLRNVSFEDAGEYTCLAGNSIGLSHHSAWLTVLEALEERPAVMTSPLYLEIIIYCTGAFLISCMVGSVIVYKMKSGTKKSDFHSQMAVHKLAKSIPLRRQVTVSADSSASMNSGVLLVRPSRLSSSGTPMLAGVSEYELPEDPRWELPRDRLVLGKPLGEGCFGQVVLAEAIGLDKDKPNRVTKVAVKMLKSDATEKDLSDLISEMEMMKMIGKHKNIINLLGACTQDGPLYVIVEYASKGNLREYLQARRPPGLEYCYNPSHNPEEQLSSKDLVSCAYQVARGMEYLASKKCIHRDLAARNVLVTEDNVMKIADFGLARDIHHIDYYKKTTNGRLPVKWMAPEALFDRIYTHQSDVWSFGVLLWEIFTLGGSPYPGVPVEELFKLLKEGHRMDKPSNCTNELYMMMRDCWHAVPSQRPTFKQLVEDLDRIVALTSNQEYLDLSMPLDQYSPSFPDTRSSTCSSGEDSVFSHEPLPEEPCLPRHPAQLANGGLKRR
# Columns and labels:
# FGFR3 enzyme = FGFR3 enzyme (Homo sapiens (Human), UniProt P22607); assay: FGFR Enzymatic Assay (FRET peptide phosphorylation), FGFR3; details: pre-incubated for 4 hours
# FGFR2 = FGFR2 (Homo sapiens (Human), UniProt P21802); assay: FGFR Enzymatic Assay (FRET peptide phosphorylation), FGFR2; type: biochemical; details: read-out: FGFR2 IC50; pre-incubated for 4 hours
# FGFR4 = FGFR4 (Homo sapiens (Human), UniProt P22455); assay: FGFR Enzymatic Assay (FRET peptide phosphorylation), FGFR4; type: biochemical; details: read-out: FGFR4 IC50; pre-incubated for 4 hours
# FGFR1 = FGFR1 (Homo sapiens (Human), UniProt P11362); assay: FGFR Enzymatic Assay (FRET peptide phosphorylation), FGFR1; details: read-out: FGFR1 IC50; pre-incubated for 4 hours
smiles,measurement,setting,value
COc1cc(OC)c(F)c(N2Cc3cnc(-c4cn(C)nc4C)cc3N(c3cnn(C)c3)C2=O)c1F,FGFR1/FGFR3 IC50 ratio,FGFR3 enzyme; FGFR3 selectivity,>10
same,FGFR4/FGFR3 IC50 ratio,FGFR3 enzyme; FGFR3 selectivity,>10
same,IC50,FGFR3 enzyme; read-out: FGFR3 IC50,< 0.01 µM
same,IC50,FGFR2,< 0.01 µM
same,IC50,FGFR4,0.03 to 0.2 µM
same,IC50,FGFR1,0.03 to 0.2 µM
